This note sets out measurements from publication PMC3361267 (Journal of Medicinal Chemistry, 2012).

By UniProt entry, the sequences of proteins in these tests, tags left out. Where a name states a change or a piece, a line headed by the entry shows the natural chain unless it says otherwise.
UniProt Q9NPD5: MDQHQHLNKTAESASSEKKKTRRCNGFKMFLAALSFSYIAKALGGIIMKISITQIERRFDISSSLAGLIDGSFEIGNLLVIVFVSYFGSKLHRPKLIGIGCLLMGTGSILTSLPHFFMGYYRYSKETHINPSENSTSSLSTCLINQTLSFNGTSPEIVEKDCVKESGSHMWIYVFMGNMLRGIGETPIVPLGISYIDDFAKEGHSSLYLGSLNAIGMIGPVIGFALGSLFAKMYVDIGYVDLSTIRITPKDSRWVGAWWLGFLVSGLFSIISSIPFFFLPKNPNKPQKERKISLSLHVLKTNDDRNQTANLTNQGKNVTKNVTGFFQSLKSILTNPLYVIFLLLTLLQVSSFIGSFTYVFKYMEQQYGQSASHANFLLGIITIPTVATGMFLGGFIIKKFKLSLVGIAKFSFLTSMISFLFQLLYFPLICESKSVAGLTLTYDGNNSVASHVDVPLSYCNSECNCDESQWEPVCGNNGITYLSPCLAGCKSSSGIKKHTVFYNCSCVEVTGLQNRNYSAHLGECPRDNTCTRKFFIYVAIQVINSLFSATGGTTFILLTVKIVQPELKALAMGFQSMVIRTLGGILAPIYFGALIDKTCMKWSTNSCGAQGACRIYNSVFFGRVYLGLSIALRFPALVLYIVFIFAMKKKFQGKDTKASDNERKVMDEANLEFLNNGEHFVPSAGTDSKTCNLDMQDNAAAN

The target in this data set is OATP1B3 (Homo sapiens, UniProt Q9NPD5).

As to Olmesartan, the “OATP1B3 Inhib %” value was 37.0%.
